# Biological target: T1, human orexin-2 receptor (Homo sapiens (Human), UniProt O43614)
# Sequences of proteins named here, by UniProt entry; tags and fusion partners are left off.
# UniProt O43614, whole entry: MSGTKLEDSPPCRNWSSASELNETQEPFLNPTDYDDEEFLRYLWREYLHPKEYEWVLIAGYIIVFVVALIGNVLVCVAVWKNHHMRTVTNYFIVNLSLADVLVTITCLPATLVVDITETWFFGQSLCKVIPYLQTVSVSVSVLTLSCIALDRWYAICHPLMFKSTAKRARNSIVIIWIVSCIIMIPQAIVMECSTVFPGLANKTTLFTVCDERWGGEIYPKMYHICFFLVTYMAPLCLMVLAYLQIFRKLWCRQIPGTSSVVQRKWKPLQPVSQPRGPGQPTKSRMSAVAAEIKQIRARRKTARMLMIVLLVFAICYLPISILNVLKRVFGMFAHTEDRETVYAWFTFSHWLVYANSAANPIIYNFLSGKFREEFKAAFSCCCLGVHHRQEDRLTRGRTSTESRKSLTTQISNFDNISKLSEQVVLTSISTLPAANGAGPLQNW
# UniProt P56718, whole entry: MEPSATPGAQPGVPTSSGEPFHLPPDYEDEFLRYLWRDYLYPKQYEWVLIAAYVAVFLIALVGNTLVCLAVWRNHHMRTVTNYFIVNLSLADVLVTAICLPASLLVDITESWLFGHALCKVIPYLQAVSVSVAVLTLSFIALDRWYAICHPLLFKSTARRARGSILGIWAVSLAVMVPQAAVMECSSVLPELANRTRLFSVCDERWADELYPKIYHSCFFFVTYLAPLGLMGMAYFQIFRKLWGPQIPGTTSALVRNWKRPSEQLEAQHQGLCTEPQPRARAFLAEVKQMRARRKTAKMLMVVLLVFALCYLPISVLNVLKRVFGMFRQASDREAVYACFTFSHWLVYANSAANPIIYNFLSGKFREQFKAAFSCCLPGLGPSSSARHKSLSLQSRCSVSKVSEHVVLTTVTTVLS
# Test: radioligand binding assay, orexin-2 receptor
# Details: membranes prepared from CHO cells expressing the OX2 receptor; read-out: hOX2R BIND hKi
# Description: (§1) In a typical experiment the OX1 and OX2 receptor antagonistic activity of the compounds of the present invention was determined in accordance with the following experimental method. For intracellular calcium measurements, Chinese hamster ovary (CHO) cells expressing the rat orexin-1 receptor or the human orexin-2 receptor, are grown in Iscove's modified DMEM containing 2 mM L-glutamine, […], 1% hypoxanthine-thymidine supplement, 100 U/ml penicillin, 100 μg/ml streptomycin and 10% heat-inactivated fetal calf serum (FCS). The cells are seeded at 20,000 cells/well into Becton-Dickinson black 384-well clear bottom sterile plates coated with poly-D-lysine. […] Within the Fluorescent Imaging Plate Reader (FLIPR, Molecular Devices), test compounds are added to the plate in a volume of 25 μl, incubated for 5 min and finally 25 μl of agonist is added. Fluorescence is measured for each well at 1 second intervals for 5 minutes and the height of each fluorescence peak is compared to the height of the fluorescence peak induced by 70 pM Ala-6,12 orexin-A with buffer in place of antagonist. […] Alternatively, compound potency can be assessed by a radioligand binding assay (described in Bergman et. al. Bioorg. Med. Chem. Lett. 2008, 18, 1425-1430) in which the inhibition constant (Ki) is determined in membranes prepared from CHO cells expressing either the OX1 or OX2 receptor. […]
row,SMILES,Ki [µM]
1,"C[C@@H]1CC[C@@H](Oc2nccc(C#N)c2C2CC2)CN1C(=O)c1ccccc1-n1nccn1 [Example 92, 3-cyclopropyl-2-{[(3R,6R)-6-methyl-1-{[2-(2H-1,2,3-triazol-2-yl)phenyl]carbonyl}piperidin-3-yl]oxy}pyridine-4-carbonitrile]",0.0002

# Biological target: T1, human orexin-2 receptor
# Test: FLIPR Ca2+ Flux Assay, orexin-2 receptor
# Format: cell-based
# Details: CHO cells expressing the human orexin-2 receptor; agonist 70 pM Ala-6,12 human orexin-A; read-out: hOX2R FLIPR IC50
# Description: as §1
row,SMILES,IC50 [µM]
1,"C[C@@H]1CC[C@@H](Oc2nccc(C#N)c2C2CC2)CN1C(=O)c1ccccc1-n1nccn1 [Example 92, 3-cyclopropyl-2-{[(3R,6R)-6-methyl-1-{[2-(2H-1,2,3-triazol-2-yl)phenyl]carbonyl}piperidin-3-yl]oxy}pyridine-4-carbonitrile]",0.012

# Biological target: rat orexin-1 receptor (Rattus norvegicus (Rat), UniProt P56718)
# Test: FLIPR Ca2+ Flux Assay, orexin-1 receptor
# Format: cell-based
# Details: CHO cells expressing the rat orexin-1 receptor; agonist 70 pM Ala-6,12 human orexin-A; read-out: hOX1R FLIPR IC50
# Description: In a typical experiment the OX1 and OX2 receptor antagonistic activity of the compounds of the present invention was determined in accordance with the following experimental method. For intracellular calcium measurements, Chinese hamster ovary (CHO) cells expressing the rat orexin-1 receptor or the human orexin-2 receptor, are grown in Iscove's modified DMEM containing 2 mM L-glutamine, […], 1% hypoxanthine-thymidine supplement, 100 U/ml penicillin, 100 μg/ml streptomycin and 10% heat-inactivated fetal calf serum (FCS). The cells are seeded at 20,000 cells/well into Becton-Dickinson black 384-well clear bottom sterile plates coated with poly-D-lysine. All reagents were from GIBCO-Invitrogen Corp. The seeded plates are incubated overnight at 37° C. and 5% CO2. Ala-6,12 human orexin-A as the agonist is prepared as a 1 mM stock solution in 1% bovine serum albumin (BSA) and diluted in assay buffer (HBSS containing 20 mM HEPES, 0.1% BSA and 2.5 mM probenecid, pH7.4) for use in the assay at a final concentration of 70 pM. Test compounds are prepared as 10 mM stock solution in DMSO, then diluted in 384-well plates, first in DMSO, then assay buffer. On the day of the assay, cells are washed 3 times with 100 μl assay buffer and then incubated for 60 min (37° C., 5% CO2) in 60 μl assay buffer containing 1 μM Fluo-4AM ester, 0.02% pluronic acid, and 1% BSA. The dye loading solution is then aspirated and cells are washed 3 times with 100 μl assay buffer. 30 μl of that same buffer is left in each well. Within the Fluorescent Imaging Plate Reader (FLIPR, Molecular Devices), test compounds are added to the plate in a volume of 25 μl, incubated for 5 min and finally 25 μl of agonist is added. Fluorescence is measured for each well at 1 second intervals for 5 minutes and the height of each fluorescence peak is compared to the height of the fluorescence peak induced by 70 pM Ala-6,12 orexin-A with buffer in place of antagonist. […] Alternatively, compound potency can be assessed by a radioligand binding assay (described in Bergman et. al. Bioorg. Med. Chem. Lett. 2008, 18, 1425-1430) in which the inhibition constant (Ki) is determined in membranes prepared from CHO cells expressing either the OX1 or OX2 receptor. The intrinsic orexin receptor antagonist activity of a compound which may be used in the present invention may be determined by these assays.
row,SMILES,IC50 [µM]
1,"Cc1c(C#N)ccnc1O[C@@H]1CC[C@@H](C)N(C(=O)c2ccccc2OC(F)(F)F)C1 [Example 62, 3-methyl-2-{[(3R,6R)-6-methyl-1-{[2-(trifluoromethoxy)phenyl]carbonyl}piperidin-3-yl]oxy}pyridine-4-carbonitrile]",1.97
2,"Cc1c(C#N)ccnc1O[C@@H]1CC[C@@H](C)N(C(=O)c2sncc2-c2ccccc2)C1 [Example 20, 3-methyl-2-({(3R,6R)-6-methyl-1-[(4-phenylisothiazol-5-yl)carbonyl]piperidin-3-yl}oxy)pyridine-4-carbonitrile]",> 10
3,COc1ccc(C(=O)N2C[C@H](Oc3nccc(C#N)c3C)CC[C@H]2C)c(C2CCC2)n1 [Example 66],9.85
4,"Cc1c(C#N)ccnc1O[C@@H]1CC[C@@H](C)N(C(=O)c2ccccc2-c2nccs2)C1 [Example 44, 3-methyl-2-{[(3R,6R)-6-methyl-1-{[2-(1,3-thiazol-2-yl)phenyl]carbonyl}piperidin-3-yl]oxy}pyridine-4-carbonitrile]",0.361
5,"Cc1c(C#N)ccnc1O[C@@H]1CC[C@@H](C)N(C(=O)c2ccccc2-c2ncco2)C1 [Example 27, 3-methyl-2-{[(3R,6R)-6-methyl-1-{[2-(1,3-oxazol-2-yl)phenyl]carbonyl}piperidin-3-yl]oxy}pyridine-4-carbonitrile]",1.03
6,"COc1ccc(C(=O)N2C[C@H](Oc3nccc(C#N)c3C)CC[C@H]2C)c(-n2nccn2)c1 [Example 7, 2-{[(3R,6R)-1-{[4-methoxy-2-(2H-1,2,3-triazol-2-yl)phenyl]carbonyl}-6-methylpiperidin-3-yl]oxy}-3-methylpyridine-4-carbonitrile]",6.12
7,"Cc1c(C#N)ccnc1O[C@@H]1CC[C@@H](C)N(C(=O)C2=C(c3ccccn3)CCC2)C1 [Example 63, 3-methyl-2-({(3R,6R)-6-methyl-1-[(2-pyridin-2-ylcyclopent-1-en-1-yl)carbonyl]piperidin-3-yl}oxy)pyridine-4-carbonitrile]",9.75
8,"COc1c(C#N)ccnc1O[C@@H]1CC[C@@H](C)N(C(=O)c2ccc(F)cc2-n2nccn2)C1 [Example 98, 2-{[(3R,6R)-1-{[4-fluoro-2-(2H-1,2,3-triazol-2-yl)phenyl]carbonyl}-6-methylpiperidin-3-yl]oxy}-3-methoxypyridine-4-carbonitrile]",3.93
9,"Cc1c(C#N)ccnc1O[C@@H]1CC[C@@H](C)N(C(=O)c2ccncc2-c2ccccc2)C1 [Example 23, 3-methyl-2-({(3R,6R)-6-methyl-1-[(3-phenylpyridin-4-yl)carbonyl]piperidin-3-yl}oxy)pyridine-4-carbonitrile]",4.45
10,"Cc1c(C#N)ccnc1O[C@@H]1CC[C@@H](C)N(C(=O)c2cccc(F)c2-n2nccn2)C1 [Example 12, 2-{[(3R,6R)-1-{[3-fluoro-2-(2H-1,2,3-triazol-2-yl)phenyl]carbonyl}-6-methylpiperidin-3-yl]oxy}-3-methylpyridine-4-carbonitrile]",0.927
11,"Cc1c(C#N)ccnc1O[C@@H]1CC[C@@H](C)N(C(=O)c2ccccc2-c2cscn2)C1 [Example 33, 3-methyl-2-{[(3R,6R)-6-methyl-1-{[2-(1,3-thiazol-4-yl)phenyl]carbonyl}piperidin-3-yl]oxy}pyridine-4-carbonitrile]",0.514
12,"CCc1c(C#N)ccnc1O[C@@H]1CC[C@@H](C)N(C(=O)c2ccccc2-n2nccn2)C1 [Example 93, 3-ethyl-2-{[(3R,6R)-6-methyl-1-{[2-(2H-1,2,3-triazol-2-yl)phenyl]carbonyl}piperidin-3-yl]oxy}pyridine-4-carbonitrile]",0.178
13,"CSc1ccc(C(=O)N2C[C@H](Oc3nccc(C#N)c3C)CC[C@H]2C)c(-n2nccn2)n1 [Example 86, 3-methyl-2-{[(3R,6R)-6-methyl-1-{[6-(methylsulfanyl)-2-(2H-1,2,3-triazol-2-yl)pyridin-3-yl]carbonyl}-piperidin-3-yl]oxy}pyridine-4-carbonitrile]",10
14,"Cc1c(C#N)ccnc1O[C@@H]1CC[C@@H](C)N(C(=O)c2c(F)cccc2-c2nccs2)C1 [Example 18, 2-{[(3R,6R)-1-{[2-fluoro-6-(1,3-thiazol-2-yl)phenyl]carbonyl}-6-methylpiperidin-3-yl]oxy}-3-methylpyridine-4-carbonitrile]",0.199
15,"Cc1c(C#N)ccnc1O[C@@H]1CC[C@@H](C)N(C(=O)c2nscc2-n2nccn2)C1 [Example 55, 3-methyl-2-{[(3R,6R)-6-methyl-1-{[4-(2H-1,2,3-triazol-2-yl)isothiazol-3-yl]carbonyl}piperidin-3-yl]oxy}pyridine-4-carbonitrile]",> 10
16,"Cc1c(C#N)ccnc1O[C@@H]1CC[C@@H](C)N(C(=O)c2ccccc2OC(C)C)C1 [Example 21, 3-methyl-2-{[(3R,6R)-6-methyl-1-{[2-(1-methylethoxy)phenyl]carbonyl}piperidin-3-yl]oxy}pyridine-4-carbonitrile]",1.96
17,Cc1c(C#N)ccnc1O[C@@H]1CC[C@@H](C)N(C(=O)c2nscc2-c2ccccc2)C1 [Example 50],2.52
18,"Cc1c(C#N)ccnc1O[C@@H]1CC[C@@H](C)N(C(=O)c2cc(F)ccc2-n2nccn2)C1 [Example 69, 2-{[(3R,6R)-1-{[5-fluoro-2-(2H-1,2,3-triazol-2-yl)phenyl]carbonyl}-6-methylpiperidin-3-yl]oxy}-3-methylpyridine-4-carbonitrile]",2.06
19,"Cc1c(C#N)ccnc1O[C@@H]1CC[C@@H](C)N(C(=O)c2ccc(Cl)cc2-n2nccn2)C1 [Example 4, 2-{[(3R,6R)-1-{[4-chloro-2-(2H-1,2,3-triazol-2-yl)phenyl]carbonyl}-6-methylpiperidin-3-yl]oxy}-3-methylpyridine-4-carbonitrile]",0.885

# Reference: US9546152B2 (MERCK SHARP & DOHME CORP., priority 2012, dated 2017)
